Test results reported in patent US20170224799A1 (UNIVERSITY OF CONNECTICUT, published 2017).

Chains of the proteins cited; added tags and fusions are not shown. Residues count along the entry.
UniProt P01902, 22-305: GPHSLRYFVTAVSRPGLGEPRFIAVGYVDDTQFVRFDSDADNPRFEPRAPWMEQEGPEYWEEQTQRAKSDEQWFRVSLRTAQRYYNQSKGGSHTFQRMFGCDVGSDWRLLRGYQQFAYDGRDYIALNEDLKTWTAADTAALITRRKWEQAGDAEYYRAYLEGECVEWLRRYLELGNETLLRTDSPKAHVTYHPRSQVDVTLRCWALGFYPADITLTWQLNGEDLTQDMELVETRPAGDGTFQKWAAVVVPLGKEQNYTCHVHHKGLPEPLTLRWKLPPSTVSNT

Biological target: H-2 K^d (mouse, UniProt P01902 22-305)
Assay: competition with radiolabeled standard peptide, purified H-2 K^d

Q: For SYMLQALCIPT [Tnpo3.2 Mut peptide SYMLQALCIPT], which IC50 is on record?
A: The IC50 was 9.96 µM.
